Measurements from PMC5150216.

Target: ExoY with a C-terminal Flag-His tag (ExoY-FH) (P. aeruginosa PAO1) (UniProt Q9I1S4)
Test: pull-down; ExoY-FH held on Ni-NTA agarose; actin (MA-L) polymerized to steady state (F-actin, Mg-ATP), equimolar amounts (12 μg); 50 mM Na-phosphate pH 8.0, 300 mM NaCl, imidazole, 5 mM ATP, 20 mM MgCl2; 1 h at 4 °C; Coomassie, densitometry

In the case of “α-actin from rabbit skeletal muscle (from UniProt P68135 1-377) (natural protein)”, the percent of F-actin recovered by elution with ExoY-FH is reported as 92%.
